Assay outcomes: PubChem, ICCB-Longwood Screening Facility, Harvard Medical School
GIV-Gai inh = inhibitors of GIV GBA-motif binding to rat Galpha-i3; P08753; Galpha-i3/FITC-GIV peptide fluorescence polarization, 90 min; hits give low values; scaled: aluminum fluoride 0%, vehicle 100%; percent of control (FP), % (no concentration beside the values); hit rate 0.42% among 210,000; AID 1224905;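 active = replicate mean at 85% of control or lower, very high polarization wells dropped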;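 note: wells of about 15 µL received 100 nL stock; the first replicate is given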
HCMV UL50-53 inh = inhibitors of HCMV UL50-UL53 interaction, biochemical, HTRF. normalized percent inhibition. HCMV UL50-UL53 nuclear egress complex (human cytomegalovirus). hit rate 0.15% among 190,000. inhibition, % (test concentration not listed); in the data active = inhibition above about 27%, passing the limit was not always enough
* marks the source's active call; other numbers are inactive results; . = no result given. Only some compounds are listed: those with a hit (about 0.43% of all), similar ones and a draw of the others.

Start of the listing, in advance (seven entries):
The line under a structure holds: HCMV UL50-53 inh | GIV-Gai inh
COc1cccc2c1N=C1OC=CC1C2OC (stereo not drawn)
    54* | .
O=C(OCc1nc2ccccc2c2ccccc12)C1=COCCO1
    -13 | .
C=CCN1/C(=C\C=C\c2n(CC=C)c3cc(Cl)c(Cl)cc3[n+]2CCCCCCCC)N(CCCCCCCC)c2cc(Cl)c(Cl)cc21
    . | -62*
CCCCCCCCN1/C(=C/C=C/c2n(CCCCCCCC)c3cc(Cl)c(Cl)cc3[n+]2CCCCC)N(CCCCC)c2cc(Cl)c(Cl)cc21
    . | 144
CCOc1ccc(-n2c(SCC(=O)Nc3cc(C)ccc3C)nc3c([nH]c4ccccc43)c2=O)cc1
    . | 96
Clc1ccc(C2=CC(c3ccc(Br)cc3)n3ncnc3N2)s1 (stereo not drawn)
    . | -22*
Cc1ccsc1C1C=C(c2ccc(Br)cc2)Nc2ncnn21 (stereo not drawn)
    . | 97

The whole of this part, from the start:
The line under a structure holds: HCMV UL50-53 inh | GIV-Gai inh
COc1cccc2c1N=C1OC=CC1C2OC (stereo not drawn)
    54* | .
O=C(OCc1nc2ccccc2c2ccccc12)C1=COCCO1
    -13 | .
C=CCN1/C(=C\C=C\c2n(CC=C)c3cc(Cl)c(Cl)cc3[n+]2CCCCCCCC)N(CCCCCCCC)c2cc(Cl)c(Cl)cc21
    . | -62*
CCCCCCCCN1/C(=C/C=C/c2n(CCCCCCCC)c3cc(Cl)c(Cl)cc3[n+]2CCCCC)N(CCCCC)c2cc(Cl)c(Cl)cc21
    . | 144
CCOc1ccc(-n2c(SCC(=O)Nc3cc(C)ccc3C)nc3c([nH]c4ccccc43)c2=O)cc1
    . | 96
Clc1ccc(C2=CC(c3ccc(Br)cc3)n3ncnc3N2)s1 (stereo not drawn)
    . | -22*
Cc1ccsc1C1C=C(c2ccc(Br)cc2)Nc2ncnn21 (stereo not drawn)
    . | 97
CSc1cccc(N/C=C(/C#N)c2ccsc2)c1
    -4 | 101
O=C(CC1CCCC1)NCc1c(-c2ccccc2)nc2n1CCS2
    . | 99
CN(C)c1ccc(/C=C/C(=C(C#N)C#N)C2CC2)cc1
    -39 | -45*
N#CC(C#N)=C(/C=C/c1ccccc1)C1CC1
    -3 | .
CCOc1ccc(/C=C2/C(=O)Nc3ccccc32)cc1
    10 | .
CCO/C=C1/C(=O)N(Cc2ccc(OC)cc2)C(=O)c2ccccc21
    57* | .
O=C1c2ccccc2C(=O)N1Cc1ccccc1
    -14 | 104
CCO/C=C1\C(=O)N(C)C(=O)c2ccccc21
    77* | .
CCO/C=C1/C(=O)N(c2ccc(Cl)cn2)C(=O)c2ccccc21
    -22 | .
CCO/C=C1/C(=O)NC(=O)c2ccccc21
    98* | .
Cc1cc(OCc2nc(CC(=O)Nc3nnc(CC(C)C)s3)cs2)ccc1Cl
    -22 | 115
CCOc1ccc(NC(=O)CSC2=C(C#N)C(c3ccccc3C)C3=C(CCCC3=O)N2)cc1 (stereo not drawn)
    . | 104
O=C(NCCCN1CCCC1=O)C1CCN(c2ncnc3c2sc2cccc(F)c23)CC1
    -8 | 107
CN(Cc1ccccc1)S(=O)(=O)c1ccc2[nH]c(=O)c(=O)[nH]c2c1
    -27 | 99
CC1=Nc2ccccc2N=C(N)C1c1ccc(Cl)cc1 (stereo not drawn)
    . | 97
N#CC1=C(N)SC(N)=C(C#N)C1c1cccc(C(F)(F)F)c1
    -50 | -83*
CCOC(=O)C1=C(C)OC(N)=C(C#N)C1c1cccc(C(F)(F)F)c1 (stereo not drawn)
    . | 100
CC(=O)C1=C(C)OC(N)=C(C#N)C1c1cccs1 (stereo not drawn)
    . | 100
N#CC1=C(N)SC(N)=C(C#N)C1c1ccc(O)cc1
    -41 | -74*
N#CC1=C(N)SC(N)=C(C#N)C1c1cccs1
    -48 | -54*
CC(C)c1ccc(C2C(C#N)=C(N)SC(N)=C2C#N)cc1
    -25 | .
O=C(c1cc(-c2ccc3c(c2)OCO3)on1)N1CCCC1c1ccccc1Cl (stereo not drawn)
    0 | 104
Cn1cccc1C(=O)OCC(=O)N(Cc1ccccc1)C1CCS(=O)(=O)C1 (stereo not drawn)
    -2 | .
O=C(O)C1(S(=O)(=O)c2ccccc2)CC1
    1 | .
CCc1ccc(S(=O)(=O)c2cn(Cc3ccccc3)c3cc(F)c(F)cc3c2=O)cc1
    -23 | 97
O=C1c2cnccc2CN1c1cc(F)ccc1F
    35* | 108
COC(=O)c1sccc1N1Cc2ccncc2C1=O
    -30 | 105
COc1ccc(S(=O)(=O)N2CC3c4ccccc4CCN3C2c2cccc([N+](=O)[O-])c2)c2cccnc12 (stereo not drawn)
    . | 110
COc1cc(-c2nc(C=Nc3ccc(C)cc3Br)c(O)o2)cc(OC)c1OC
    . | 110
Cc1ccc(N=Cc2nc(-c3cccc4ccccc34)oc2O)c(Br)c1
    . | 25*
COc1ccc(-c2ncc3c(=O)n(CCN(C)C)c(=O)n(C)c3n2)cc1
    . | 99
CC(C)(C)c1ccc(C2Oc3ccccc3C3CC(c4ccc(Br)cc4)=NN32)cc1 (stereo not drawn)
    42* | 102
CC(C)c1ccc(C2Oc3ccccc3C3CC(c4ccc(Br)cc4)=NN32)cc1 (stereo not drawn)
    -2 | 98
Cc1[nH]c2ccc(-c3nnc(SCC(=O)NCCc4nc5ccccc5[nH]4)o3)cc2c1C
    -2 | 101
CC(C)(C)C(=O)Nc1ccc(-c2nc3ccc(NC(=O)C(C)(C)C)cc3[nH]2)cc1
    9 | 100
C=CC(=O)Nc1ccc(-c2nc3ccc(NC(=O)C=C)cc3[nH]2)cc1
    54* | 111
CCOC(=O)CSc1nc2c(C)ccc(F)c2cc1C
    1 | 100
O=c1c2ccccc2c(=O)c2c1c(NC1CCCCC1)cc1oc3cc(Cl)ccc3[nH]c12
    -7 | 102
CC1=CC(=C2C(=O)NC(=S)NC2=O)C=C(C)N1CCc1ccccc1
    -29 | 98
CC1=CC(=C2C(=O)NC(=O)NC2=O)C=C(C)N1c1ccccc1
    -4 | -4.9*
Cc1ccsc1C(=O)Oc1ccc(F)cc1
    -24 | .
CC(C)(C)c1cc(NC(=O)CSc2n[nH]c(=O)n2-c2ccc3c(c2)OCCO3)cc(C(C)(C)C)c1
    -12 | .
C=CC(=O)Nc1cccc(Oc2nc(Nc3ccc(N4CCN(C)CC4)cc3OC)ncc2Cl)c1
    49 | .
C=CC(=O)Nc1cccc(Oc2cc(Cl)nc3[nH]ccc23)c1
    34* | .
CC1=C(C(=O)OCCc2ccccc2)C(c2coc3ccc(C)cc3c2=O)C2=C(CC(C)(C)CC2=O)N1 (stereo not drawn)
    -14 | 101
CC(=O)Nc1ccc(N=Cc2c(C)[nH]n(-c3ccc(C)c(C)c3)c2=O)cc1
    . | 117
Cc1ccc(-n2[nH]c(=O)c(N=O)c2O)cc1C
    . | 85*
CCCc1cc(=O)[nH]c(Nc2cc(C)ccc2OC)n1
    -16 | 101
CN(C)S(=O)(=O)c1ccc(-c2noc(C(=O)NC3CC3)n2)cc1
    . | 107
CCN(CC)c1ccc(C=C2C(=O)c3ccccc3C2=O)c(O)c1
    -58 | -64*
CCN(CC)c1ccc(/C=N/NC=O)c(O)c1
    -35 | .
O=C1c2ccccc2C(=O)N1CC(=O)N(c1ccccc1)c1ccccc1
    . | 109
Cc1ccc(S(=O)(=O)N(Cc2c(F)cccc2Cl)c2nc3nc(C)cc(C)n3n2)cc1
    0 | 101

(listing goes on)
The line under a structure holds: HCMV UL50-53 inh | GIV-Gai inh
COc1cc(C=C2C(=O)NC(=O)NC2=O)cc(Br)c1OCCOc1ccccc1
    82* | 105
COc1ccccc1OCCOc1c(Br)cc(C=C2C(=O)N(C)C(=O)N(C)C2=O)cc1OC
    77* | 106
CCOc1cc(C=C2C(=O)NC(=O)NC2=O)cc(Br)c1OCCOc1ccccc1
    -15 | 108
COc1cc(C=C2C(=O)NC(=O)NC2=O)cc(Cl)c1OS(=O)(=O)c1ccccc1
    60* | 104
COc1cc(C=C2C(=O)NC(=S)NC2=O)cc(Cl)c1OCCOc1cccc(C)c1
    7 | 111
COc1cc(C=C2C(=O)N(C)C(=O)N(C)C2=O)cc(Br)c1OCCOc1ccccc1
    -7 | 106
CCOC(=O)c1cc(C)n(CC2CCC(C(=O)Nc3cc(OC)cc(OC)c3)CC2)c1C (stereo not drawn)
    8 | 103
Cc1cc(C)cc(-n2c(SCC(=O)NCC3CCCO3)nc3c(c2=O)SC(C)C3)c1 (stereo not drawn)
    -12 | 104
CC(c1ccccc1)C1C(C#N)=C(N)SC(N)=C1C#N (stereo not drawn)
    -18 | 108
